Experimental data taken from US8846044B2, “Stabilizing alkylglycoside compositions and methods thereof” (Aegis Therapeutics, LLC, priority 2006, dated 2014).

Tests used:
[1] = Light scatter of beta interferons, Pramlintide and calcitonin with and without dodecyl maltoside; settings: 37° C., 150 RPM
[2] = agitation at 150 RPM

## Pramlintide®
[1]; light scatter
  Stabilization in the presence of 0.2% Dodecyl maltoside: approx. 5 fold

## PTH 1-34
[2]
  Stability against aggregation at 37° C. compared with 40° C. (FIG. 12): significantly more stable

## Calcitonin
[1]; 38 day test period, light scatter at 500 nm
  Stabilization by 0.2% Dodecyl maltoside, in words: stable either in the presence or absence of excipient
